Results taken from ChEMBL document CHEMBL1147033, “Novel selective androgen receptor modulators: SAR studies on 6-bisalkylamino-2-quinolinones” (Bioorg Med Chem Lett, 2007).

What was measured:
Homo sapiens [1] = species: Homo sapiens; assay: Selectivity for human AR receptor over estrogen receptor
Homo sapiens [2] = species: Homo sapiens; assay: Selectivity for human AR receptor over progesterone receptor
Homo sapiens [3] = species: Homo sapiens; assay: Selectivity for human AR receptor over glucocorticoid receptor
Homo sapiens [4] = species: Homo sapiens; assay: Selectivity for human AR receptor over mineralocorticoid receptor

Measured: Fold change

Cc1cc(=O)[nH]c2ccc(N(CC(F)(F)F)CC(F)(F)F)cc12
1000: all assays above

CCCN(CC(F)(F)F)c1ccc2[nH]c(=O)cc(C(F)(F)F)c2c1
1000: all assays above
